The source of these data is patent US5922728A, “Phenylsubstituted 4-azasteroid fluoroderivatives” (Pharmacia & Upjohn, S.p.A., priority 1995, dated 1999).

Amino acid sequences for entries named in this document (tags omitted). A change or cut given only in a name is not applied to a line headed by its entry.
UniProt P31213: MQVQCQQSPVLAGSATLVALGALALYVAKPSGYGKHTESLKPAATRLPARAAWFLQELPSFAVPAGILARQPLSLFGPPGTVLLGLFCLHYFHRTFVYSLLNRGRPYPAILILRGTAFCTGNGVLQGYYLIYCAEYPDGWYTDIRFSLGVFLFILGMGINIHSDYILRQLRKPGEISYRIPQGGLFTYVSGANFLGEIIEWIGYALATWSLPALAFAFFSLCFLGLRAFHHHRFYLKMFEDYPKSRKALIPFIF

In this test the target is human 5α-reductase (Homo sapiens, UniProt P31213). Nature of the test: biochemical.

With `C[C@]12C=CC(=O)N[C@@H]1CC[C@@H]1[C@@H]2CC[C@]2(C)[C@@H](C(=O)NC(c3ccccc3)(C(F)(F)F)C(F)(F)F)CC[C@@H]12` [compound 1, N-(1,1,1,3,3,3-hexafluorophenylpropyl)-3-oxo-4-aza-5α-androst-1-ene-17β-carboxamide], the half-maximal inhibitory concentration (IC50) (as a rule, the concentration needed to halve the response being measured) is 28 nM.
